Assay results taken from ChEMBL document CHEMBL3351571, “Peptidomimetics of Arg-Phe-NH2 as small molecule agonists of Mas-related gene C (MrgC) receptors” (Bioorg Med Chem, 2014).

Columns and labels:
MrgC (Rattus norvegicus) = assay: Agonist activity at rat MrgC transfected in HEK293 cells at 2 uM by FLIPR assay
[1] = target: Mas-related G-protein coupled receptor member X1 (Homo sapiens, UniProt Q96LB2); assay: Antagonist activity at human MrgX1 transfected in HEK293 cells at 200 uM by FLIPR assay; assay type: cell-based

Activity (MrgC (Rattus norvegicus)) | Activity [1] | Structure (SMILES)
inactive |  | COc1ccc(-c2ccc(C(=O)Nc3cccc(Cn4ncc(N5CCNCC5)cc4=O)c3C)cc2)cn1
 | inactive | N=C(N)NCCC[C@H](N)C(=O)N[C@@H](Cc1ccccc1)C(N)=O

Activity calls are given as the source filed them. The calls are words filed in the database; no cut-off is given here.
